For one assay, the target named is T1, CRF2R (Homo sapiens, UniProt Q13324).
T1 sequence (Q13324 1-411): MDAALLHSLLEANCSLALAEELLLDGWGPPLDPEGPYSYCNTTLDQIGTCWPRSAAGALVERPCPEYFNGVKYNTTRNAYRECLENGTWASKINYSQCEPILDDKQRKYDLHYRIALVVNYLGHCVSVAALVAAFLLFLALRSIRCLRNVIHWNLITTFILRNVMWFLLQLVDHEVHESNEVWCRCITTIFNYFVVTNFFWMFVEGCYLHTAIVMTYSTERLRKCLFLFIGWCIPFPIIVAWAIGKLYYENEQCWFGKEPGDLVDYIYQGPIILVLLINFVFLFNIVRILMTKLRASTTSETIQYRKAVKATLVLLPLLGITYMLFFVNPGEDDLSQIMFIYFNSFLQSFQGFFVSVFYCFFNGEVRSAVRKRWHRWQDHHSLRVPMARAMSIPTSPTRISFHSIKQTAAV
The assay can be described thus: CRF2R agonist activation (EC50 / Emax), called comparative CRF binding. It counts as cell-based. To be noted: for Emax: read-out: CRF2R Emax. In short, it runs like this: (§1)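 Peptides are tested on cells bearing CRF1R or CRF2R, full length or as ligand-binding-domain constructs coupled to reporters or G proteins. Activation is scored by cAMP rise, measured in lysates or by CRE-reporter output, against vehicle control.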

The target in a further assay is T2, CRF1R (Homo sapiens, UniProt P34998).
T2 sequence (P34998 24-415): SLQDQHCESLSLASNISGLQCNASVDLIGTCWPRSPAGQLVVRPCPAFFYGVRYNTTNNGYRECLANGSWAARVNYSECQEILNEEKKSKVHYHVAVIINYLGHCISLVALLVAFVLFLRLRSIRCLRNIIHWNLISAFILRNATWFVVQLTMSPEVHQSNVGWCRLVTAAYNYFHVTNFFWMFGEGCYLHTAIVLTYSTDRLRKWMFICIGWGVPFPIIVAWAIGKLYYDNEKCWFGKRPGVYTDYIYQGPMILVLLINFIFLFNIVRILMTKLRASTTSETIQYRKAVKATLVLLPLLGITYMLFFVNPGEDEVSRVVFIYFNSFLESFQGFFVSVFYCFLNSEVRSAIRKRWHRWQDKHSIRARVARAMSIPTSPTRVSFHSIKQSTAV
The assay can be described thus: CRF1R agonist activation (EC50 / Emax), called comparative CRF binding. It counts as cell-based. To be noted: for Emax: read-out: CRF1R Emax; for EC50: CRF1R EC50. The gist of the method: as §1

This note sets out measurements from patent US6936585B2, “Corticotropin releasing factor 2 receptor agonists” (priority 2002, dated 2005).

As a reminder, the Emax is the size of the effect at its maximum, as opposed to the concentration needed. Take `CC[C@H](C)[C@H](NC(=O)[C@@H](NC(=O)[C@H](CC(=O)O)NC(=O)[C@H](CC(C)C)NC(=O)[C@H](CC(C)C)NC(=O)[C@H](CC(C)C)NC(=O)[C@H](CCCNC(=N)N)NC(=O)[C@H](CC(N)=O)NC(=O)[C@H](CC(N)=O)NC(=O)[C@H](C)NC(=O)[C@H](C)NC(=O)[C@H](CCC(N)=O)NC(=O)[C@H](CCC(N)=O)NC(=O)[C@H](CCCCN)NC(=O)[C@H](CCC(=O)O)NC(=O)[C@H](CCCCN)NC(=O)[C@H](CCC(=O)O)NC(=O)[C@H](CCC(N)=O)NC(=O)[C@H](CCCCN)NC(=O)[C@H](CCC(=O)O)NC(=O)[C@@H](NC(=O)[C@H](CCC(=O)O)NC(=O)[C@@H](NC(=O)[C@H](CCSC)NC(=O)[C@H](CCCCN)NC(=O)[C@H](CCCNC(=N)N)NC(=O)[C@H](CC(C)C)NC(=O)[C@H](CC(C)C)NC(=O)[C@H](CCC(N)=O)NC(=O)[C@H](Cc1ccc(O)cc1)NC(=O)[C@@H]1CCCN1C(=O)[C@H](CC(C)C)NC(=O)[C@H](CC(=O)O)NC(=O)[C@@H](NC(=O)[C@H](CO)NC(=O)[C@@H](NC(=O)[C@@H]1CCCN1C(=O)[C@@H]1CCCN1C(=O)CNC(=O)[C@@H]1CCC(=O)N1)[C@@H](C)CC)[C@@H](C)CC)[C@@H](C)CC)[C@@H](C)CC)[C@@H](C)O)C(N)=O` [compound 202]: the Emax on CRF2R was found to be 99%; at CRF1R it was 100%.

Regarding `CC[C@H](C)[C@H](NC(=O)[C@@H](NC(=O)[C@H](CC(=O)O)NC(=O)[C@H](CC(C)C)NC(=O)[C@H](CC(C)C)NC(=O)[C@H](CC(C)C)NC(=O)[C@H](CCCNC(=N)N)NC(=O)[C@H](CC(N)=O)NC(=O)[C@H](CC(N)=O)NC(=O)[C@H](C)NC(=O)[C@H](C)NC(=O)[C@H](CCC(N)=O)NC(=O)[C@H](CCC(N)=O)NC(=O)[C@H](CCCCN)NC(=O)[C@H](CCC(=O)O)NC(=O)[C@H](CCCCN)NC(=O)[C@H](CCC(=O)O)NC(=O)[C@H](CCC(N)=O)NC(=O)[C@H](CCCCN)NC(=O)[C@H](CCC(=O)O)NC(=O)[C@@H](NC(=O)[C@H](CCC(=O)O)NC(=O)[C@@H](NC(=O)[C@H](CCSC)NC(=O)[C@H](CCCCN)NC(=O)[C@H](CCCNC(=N)N)NC(=O)[C@H](CC(C)C)NC(=O)[C@H](CC(C)C)NC(=O)[C@H](Cc1ccccc1)NC(=O)[C@H](Cc1ccc(O)cc1)NC(=O)[C@@H]1CCCN1C(=O)[C@H](CC(C)C)NC(=O)[C@H](CC(=O)O)NC(=O)[C@@H](NC(=O)[C@H](CO)NC(=O)[C@@H](NC(=O)[C@@H]1CCCN1C(=O)[C@@H]1CCCN1C(=O)CNC(=O)[C@@H]1CCC(=O)N1)[C@@H](C)CC)[C@@H](C)CC)[C@@H](C)CC)[C@@H](C)CC)[C@@H](C)O)C(N)=O` [compound 220], the Emax at CRF2R came out at 98%; at CRF1R it was 81%.

In general, EC50 refers to the concentration at which the effect is half-maximal. Read a high EC50 as weaker potency. `CC[C@H](C)[C@H](NC(=O)[C@H](Cc1c[nH]cn1)NC(=O)[C@H](C)NC(=O)[C@H](CC(C)C)NC(=O)[C@H](CC(C)C)NC(=O)[C@H](CCC(N)=O)NC(=O)[C@H](C)NC(=O)[C@H](CC(N)=O)NC(=O)[C@H](CC(N)=O)NC(=O)[C@H](C)NC(=O)[C@H](C)NC(=O)[C@H](CCC(N)=O)NC(=O)[C@H](CCC(N)=O)NC(=O)[C@H](CCCCN)NC(=O)[C@H](CCC(=O)O)NC(=O)[C@H](CCCCN)NC(=O)[C@H](CCC(=O)O)NC(=O)[C@H](CCC(N)=O)NC(=O)[C@H](CCCCN)NC(=O)[C@H](CCC(=O)O)NC(=O)[C@@H](NC(=O)[C@H](CCC(=O)O)NC(=O)[C@@H](NC(=O)[C@@H](NC(=O)[C@H](CCCCN)NC(=O)[C@H](CCCNC(=N)N)NC(=O)[C@H](CC(C)C)NC(=O)[C@H](CC(C)C)NC(=O)[C@H](CCC(N)=O)NC(=O)[C@H](Cc1ccccc1)NC(=O)[C@@H]1CCCN1C(=O)[C@H](CC(C)C)NC(=O)[C@H](CC(=O)O)NC(=O)[C@@H](NC(=O)[C@H](CO)NC(=O)[C@@H](NC(=O)[C@@H]1CCCN1C(=O)[C@@H]1CCCN1C(=O)CNC(=O)[C@@H]1CCC(=O)N1)[C@@H](C)CC)[C@@H](C)CC)C(C)C)[C@@H](C)CC)[C@@H](C)CC)C(N)=O` [compound 273]: the EC50 at CRF2R is 31.3 nM; on CRF1R it was ≥ 1000 nM. Moreover, the Emax at CRF2R was 100%; on CRF1R, 59.3%.

For the molecule `CC[C@H](C)[C@H](NC(=O)[C@@H](NC(=O)[C@H](CC(=O)O)NC(=O)[C@H](CC(C)C)NC(=O)[C@H](CC(C)C)NC(=O)[C@H](CC(C)C)NC(=O)[C@H](CCCNC(=N)N)NC(=O)[C@H](CC(N)=O)NC(=O)[C@H](CC(N)=O)NC(=O)[C@H](C)NC(=O)[C@H](C)NC(=O)[C@H](CCC(N)=O)NC(=O)[C@H](CCC(N)=O)NC(=O)[C@H](CCCCN)NC(=O)[C@H](CCC(=O)O)NC(=O)[C@H](CCCCN)NC(=O)[C@H](CCC(=O)O)NC(=O)[C@H](CCC(N)=O)NC(=O)[C@H](CCCCN)NC(=O)[C@H](CCC(=O)O)NC(=O)[C@@H](NC(=O)[C@H](CCC(=O)O)NC(=O)[C@@H](NC(=O)[C@H](CCSC)NC(=O)[C@H](CCCCN)NC(=O)[C@H](CCCNC(=N)N)NC(=O)[C@H](CC(C)C)NC(=O)[C@H](CC(C)C)NC(=O)[C@H](C)NC(=O)[C@H](Cc1ccccc1)NC(=O)[C@@H]1CCCN1C(=O)[C@H](CC(C)C)NC(=O)[C@H](CC(=O)O)NC(=O)[C@@H](NC(=O)[C@H](CO)NC(=O)[C@@H](NC(=O)[C@@H]1CCCN1C(=O)[C@@H]1CCCN1C(=O)CNC(=O)[C@@H]1CCC(=O)N1)[C@@H](C)CC)[C@@H](C)CC)[C@@H](C)CC)[C@@H](C)CC)[C@@H](C)O)C(N)=O` [compound 307], on CRF2R, it took 5.82 nM to reach a half-maximal effect (EC50) and the Emax worked out at 96.5%. Moreover, on CRF1R, the EC50 was 78.4 nM and the maximal response (Emax) is 92.7%.

For the molecule `CC[C@H](C)[C@H](NC(=O)[C@@H](NC(=O)[C@H](CC(=O)O)NC(=O)[C@H](CC(C)C)NC(=O)[C@H](CC(C)C)NC(=O)[C@H](CC(C)C)NC(=O)[C@H](CCCNC(=N)N)NC(=O)[C@H](CC(N)=O)NC(=O)[C@H](CC(N)=O)NC(=O)[C@H](C)NC(=O)[C@H](C)NC(=O)[C@H](CCC(N)=O)NC(=O)[C@H](CCC(N)=O)NC(=O)[C@H](CCCCN)NC(=O)[C@H](CCC(=O)O)NC(=O)[C@H](CCCCN)NC(=O)[C@H](CCC(=O)O)NC(=O)[C@H](CCC(N)=O)NC(=O)[C@H](CCCCN)NC(=O)[C@H](CCC(=O)O)NC(=O)[C@@H](NC(=O)[C@H](CCC(=O)O)NC(=O)[C@@H](NC(=O)[C@H](CCSC)NC(=O)[C@H](CCCCN)NC(=O)[C@H](CCCNC(=N)N)NC(=O)[C@H](CC(C)C)NC(=O)[C@H](CC(C)C)NC(=O)[C@H](Cc1ccccc1)NC(=O)[C@@H](NC(=O)[C@@H]1CCCN1C(=O)[C@H](CC(C)C)NC(=O)[C@H](CC(=O)O)NC(=O)[C@@H](NC(=O)[C@H](CO)NC(=O)[C@@H](NC(=O)[C@@H]1CCCN1C(=O)[C@@H]1CCCN1C(=O)CNC(=O)[C@@H]1CCC(=O)N1)[C@@H](C)CC)[C@@H](C)CC)[C@@H](C)CC)[C@@H](C)CC)[C@@H](C)CC)[C@@H](C)O)C(N)=O` [compound 29], the maximal effect (Emax) was determined as 100% at CRF2R and 79% at CRF1R.
